Columns and labels:
[1] = system: L1210; assay: The cytotoxicity (LC99) was evaluated in vitro against L1210 cells obtained from cultured mice
[2] = organism: Homo sapiens; assay: Half-life period obtained from linear regression of metabolite concentration in Human plasma containing 100 mM phosphate, at pH 7.4
[3] = system: L1210; assay: The cytotoxicity (LC99) was evaluated in vitro against L1210 cells obtained from cultured mice.
[4] = Half-life period obtained from linear regression of metabolite concentration in aqueous buffer of pH 7.4 at 37 degrees Celsius in 100 mM phosphate buffer.
[5] = Half-life period obtained from linear regression of metabolite concentration in aqueous buffer of pH 7.4 at 37 degrees Celsius in 100 mM HEPES buffer.

SMILES | LC99 [1] | T1/2 [2] | LC99 [3] | T1/2 [4] | T1/2 [5]
NP(=O)(O)N(CCCl)CCCl | 169 µM |  |  |  | 
NP(=O)(OCCC=O)N(CCCl)CCCl.O=P1(N(CCCl)CCCl)NC(O)CCO1 (centres undefined) |  | 14 min | 12.1 µM | 44 min | 
CN1C(O)CCOP1(=O)N(CCCl)CCCl.CNP(=O)(OCCC=O)N(CCCl)CCCl (centres undefined) |  | 37 min |  | > 200 min | 
O=CCCOP(=O)(NCCCl)N(CCCl)CCCl.O=P1(N(CCCl)CCCl)OCCC(O)N1CCCl (centres undefined) |  | 9 min |  | 40 min | 
CNP(=O)(O)N(CCCl)CCCl |  |  |  |  | 12 min

Reference: ChEMBL document CHEMBL1124519 (J Med Chem, 1989)
